Measured values from PubChem BioAssay AID1159614 (National Center for Advancing Translational Sciences (NCATS), 2016).
The entries are a selection whose mix differs from that of the whole data set. Calls of active or inactive are those of the source. The call rests on the fitted dose curve; in most records, active means well fitted activation curve with a large enough effect; inconclusive means small, poorly fitted or top-dose-only effect; inactive means no such curve, though single readings can be large or run the other way.

Sequences of proteins named here, by UniProt entry; tags and fusion partners are left off.
UniProt P54803, whole entry G286D: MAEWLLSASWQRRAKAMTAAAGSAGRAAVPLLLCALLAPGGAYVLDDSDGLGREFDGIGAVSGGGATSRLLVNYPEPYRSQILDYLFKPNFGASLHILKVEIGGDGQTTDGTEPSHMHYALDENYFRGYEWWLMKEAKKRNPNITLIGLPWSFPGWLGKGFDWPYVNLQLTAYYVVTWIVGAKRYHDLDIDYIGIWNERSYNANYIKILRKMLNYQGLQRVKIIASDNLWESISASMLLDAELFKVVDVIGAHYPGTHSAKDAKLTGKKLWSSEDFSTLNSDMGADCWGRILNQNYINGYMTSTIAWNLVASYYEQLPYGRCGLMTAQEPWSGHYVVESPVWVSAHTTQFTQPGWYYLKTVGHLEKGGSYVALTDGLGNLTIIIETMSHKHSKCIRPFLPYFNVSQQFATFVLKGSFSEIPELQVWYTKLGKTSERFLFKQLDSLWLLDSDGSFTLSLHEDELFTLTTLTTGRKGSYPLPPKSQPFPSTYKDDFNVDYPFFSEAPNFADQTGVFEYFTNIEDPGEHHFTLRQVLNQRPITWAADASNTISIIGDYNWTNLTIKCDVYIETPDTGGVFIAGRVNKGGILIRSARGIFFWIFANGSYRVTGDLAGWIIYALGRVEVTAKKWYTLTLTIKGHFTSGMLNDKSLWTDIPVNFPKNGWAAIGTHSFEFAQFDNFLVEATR

Biological target: Galactocerebrosidase (Homo sapiens) (UniProt P54803)
Experiment: A Novel Cell-Based Assay to Identify Small Molecules for B -Galactocerebrosidase; further: 0% is about no effect; nearly all actives have a fitted effect of over 65% in size
Details: 145M-Twi-hGALC-G270D cells (Twitcher mouse brain line with human GALC G270D), HMU-beta-Gal fluorescence, 48 h; at 114 µM (top of the series) unless noted

SMILES	activation
CN(CCCl)CCCl	inactive: -13.7% [at 57.5 µM]
CCC(=O)N(c1ccccc1)C1(COC)CCN(CCc2cccs2)CC1	inactive: -11.1%
CCC(=O)N(c1ccccc1)C1(COC)CCN(CCn2nnn(CC)c2=O)CC1	inactive: -6.93%
